Source: article PMC6923863 (BMC Pharmacology & Toxicology, 2019)

Target: NMDA receptor (Rattus norvegicus, UniProt P35439)
Assay: biochemical
Details: IC50, 5 nM [3H]-MK-801, rat brain preparations, pH 7.4, 3 h, 25 °C

In the case of `CNC1(c2ccccc2Cl)CCCCC1=O` (stereo not shown) [Ketamine], the IC50 is reported as < 1000 nM and 700 nM.

Several values for one entry are separate records, joined by “and”; a condition that tells them apart may be missing. Identical values can stand only once.
